This test addresses P2Y purinoceptor 1 (Homo sapiens, UniProt P47900). The test can be described thus: Accumulation of inositol phosphate in 1321N1 astrocytoma cells expressing human P2Y1 purinoceptor. In kind it is cell-based. The method in brief:
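Inositol phosphate accumulation measured in 1321N1 human astrocytoma cells stably expressing human P2Y1, P2Y2, P2Y4 or P2Y11 receptor. Full concentration–effect curves, repeated in at least three separate experiments run in duplicate or triplicate. EC50 from four-parameter logistic fit. Relative efficacy (%) taken against a maximal effective concentration of UTP or UDP in the same experiment.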

By UniProt entry, the sequences of proteins in these tests, tags left out. Where a name states a change or a piece, a line headed by the entry shows the natural chain unless it says otherwise.
UniProt P47900: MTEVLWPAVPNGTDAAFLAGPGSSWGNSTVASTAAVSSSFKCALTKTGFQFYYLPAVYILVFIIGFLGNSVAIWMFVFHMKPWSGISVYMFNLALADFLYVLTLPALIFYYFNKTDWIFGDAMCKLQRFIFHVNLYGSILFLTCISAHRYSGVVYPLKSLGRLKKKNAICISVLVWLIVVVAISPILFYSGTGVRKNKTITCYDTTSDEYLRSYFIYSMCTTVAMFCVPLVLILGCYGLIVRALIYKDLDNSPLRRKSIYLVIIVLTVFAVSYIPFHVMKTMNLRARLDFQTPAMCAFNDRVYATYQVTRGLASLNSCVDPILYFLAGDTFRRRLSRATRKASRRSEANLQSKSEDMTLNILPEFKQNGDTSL

Molecule `CSc1nc(N)c2ncn([C@@H]3O[C@H](COP(=O)(O)OP(=O)(O)O)[C@@H](O)[C@H]3O)c2n1` displayed an EC50 of 6.4 nM. This counts as single-digit nanomolar.

The term EC50 denotes the concentration that produces a half-maximal response. Low readings indicate higher potency in that assay, high ones lower potency in that assay.

These data come from ChEMBL document CHEMBL1135410, “Adenine nucleotide analogues locked in a Northern methanocarba conformation: enhanced stability and potency as P2Y(1) receptor agonists” (J Med Chem, 2002).
